Source: patent US20070286846A1, “Novel methods for ester detoxication” (published 2007)
This is a selection: effects in other tests are not listed, and their absence says nothing.

The chains behind the UniProt entries cited, without tags or fusion partners. Where a name states a change or a piece, a line headed by the entry shows the natural chain unless it says otherwise. Residues count along the entry.
UniProt P06276, 29-602 limits assumed: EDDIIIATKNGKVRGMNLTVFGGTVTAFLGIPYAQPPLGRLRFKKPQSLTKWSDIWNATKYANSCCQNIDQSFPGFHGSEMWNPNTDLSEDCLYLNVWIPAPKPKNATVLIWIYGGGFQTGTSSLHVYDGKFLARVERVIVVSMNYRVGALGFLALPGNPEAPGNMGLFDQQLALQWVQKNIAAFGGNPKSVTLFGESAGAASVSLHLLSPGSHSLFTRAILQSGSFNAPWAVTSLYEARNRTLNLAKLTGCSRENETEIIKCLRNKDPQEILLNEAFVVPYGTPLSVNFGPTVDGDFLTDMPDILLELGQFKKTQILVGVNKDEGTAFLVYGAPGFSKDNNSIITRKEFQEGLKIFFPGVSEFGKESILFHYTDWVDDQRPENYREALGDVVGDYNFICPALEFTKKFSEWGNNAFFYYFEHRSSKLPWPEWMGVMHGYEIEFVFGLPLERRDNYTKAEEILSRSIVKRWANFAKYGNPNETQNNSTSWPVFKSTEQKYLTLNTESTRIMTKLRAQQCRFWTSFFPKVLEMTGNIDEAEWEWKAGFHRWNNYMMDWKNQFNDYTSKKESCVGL
UniProt P06276, 29-602 G145H/E225Q limits assumed: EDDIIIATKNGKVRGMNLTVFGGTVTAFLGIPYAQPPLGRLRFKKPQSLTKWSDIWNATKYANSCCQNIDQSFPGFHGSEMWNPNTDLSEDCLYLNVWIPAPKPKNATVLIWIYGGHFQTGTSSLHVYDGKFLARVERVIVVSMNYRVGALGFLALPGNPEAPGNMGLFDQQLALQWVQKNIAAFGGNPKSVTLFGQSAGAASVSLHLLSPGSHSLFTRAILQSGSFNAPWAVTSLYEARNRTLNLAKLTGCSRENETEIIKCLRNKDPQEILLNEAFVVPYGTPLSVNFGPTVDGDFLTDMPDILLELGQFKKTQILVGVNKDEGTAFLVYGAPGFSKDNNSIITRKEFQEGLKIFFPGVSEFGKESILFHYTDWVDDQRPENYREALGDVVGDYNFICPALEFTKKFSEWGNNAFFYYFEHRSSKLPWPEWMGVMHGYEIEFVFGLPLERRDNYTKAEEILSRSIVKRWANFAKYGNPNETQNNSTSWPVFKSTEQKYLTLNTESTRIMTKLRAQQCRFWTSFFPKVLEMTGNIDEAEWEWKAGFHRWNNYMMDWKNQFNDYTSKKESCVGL

Key:
G117H/E197Q HuBchE = G117H/E197Q HuBchE (Homo sapiens, UniProt P06276, E225Q/G145H); assay: OP inhibition of G117H/E197Q HuBchE, remaining activity (Ellman); conditions: 0.5 mM compound, 48 hr at 4° C.; 1 mM BchI; buffer = 100%
HuBchE = HuBchE (Homo sapiens, UniProt P06276); assay: Time-dependent inhibition kinetics of HuBchE by OP compounds
RhBchE = assay: Time-dependent inhibition kinetics of RhBchE by ETP; conditions: Table 5; 50 mM potassium phosphate pH 7.2, 25° C.
WT HuBchE = WT HuBchE (Homo sapiens, UniProt P06276); assay: OP inhibition of WT HuBchE, remaining activity (Ellman)

With `CCOP(=O)(OCC)SCC[N+](C)(C)C` the “remaining enzyme activity, G117H/E197Q” value (G117H/E197Q HuBchE) was 12.77%, the “ki inhibition rate constant, HuBchE” value (HuBchE; Table 5, 50 mM potassium phosphate pH 7.2, 25° C.) was 1860 ± 135 × 10^3 (M^−1 min^−1) and the “ki × 10^3 (M^−1min^−1)” value (HuBchE; Table 7, huBchE) was 1860 ± 135 × 10^3 (M^−1min^−1). For the same compound, the “ki inhibition rate constant, RhBchE” value (RhBchE) was 764.4 ± 40.5 × 10^3 (M^−1 min^−1), the “remaining enzyme activity, WT” value (WT HuBchE; 0.5 mM compound, 48 hr at 4° C., 1 mM BchI, buffer = 100%) was 0.02% and the “WT remaining activity when BchI hydrolysis examined for longer periods of time” value (WT HuBchE; post incubation with 0.5 mM compound) was “no detectable activity”.
